US20240308992A1 (Biopolar Youtang(Guangdong) Pharmaceutical Co., Ltd., priority 2021, published 2024)

The chains behind the UniProt entries cited, without tags or fusion partners.
UniProt O94768, whole entry: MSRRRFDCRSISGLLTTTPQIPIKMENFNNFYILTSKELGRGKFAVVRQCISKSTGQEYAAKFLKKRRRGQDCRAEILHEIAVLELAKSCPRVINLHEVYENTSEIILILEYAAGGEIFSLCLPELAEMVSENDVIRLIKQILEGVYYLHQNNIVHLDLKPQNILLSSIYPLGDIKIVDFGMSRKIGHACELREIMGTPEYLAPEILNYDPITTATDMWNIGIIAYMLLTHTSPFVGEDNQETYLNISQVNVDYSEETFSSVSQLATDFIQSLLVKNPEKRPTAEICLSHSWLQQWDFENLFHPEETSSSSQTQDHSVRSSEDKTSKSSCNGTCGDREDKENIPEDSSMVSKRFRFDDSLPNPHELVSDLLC

Target: Drak2 (Homo sapiens, UniProt O94768)
Assay: Drak2 activity test, ADP-Glo kinase assay (Promega)
Format: biochemical
Details: read-out: IC50_Drak2, inhibition of Drak2 kinase activity, 2 h room temperature, activity range classes

Structure (SMILES)	IC50 [µM]
CCCCC(=O)Nc1cc(-c2cncc(-c3ccc(C(=O)N(C)C4CCN(C)CC4)c(OC)c3)n2)cs1	0.101 to 1
CCCCC(=O)Nc1ccc(-c2cncc(-c3ccc(C(=O)N(C)C4CCN(C)CC4)c(OC)c3)n2)s1	0.101 to 1
